Results from article PMC7730235, “Discovery of a Novel Class of Covalent Dual Inhibitors Targeting the Protein Kinases BMX and BTK” (International Journal of Molecular Sciences, 2020).

Protein sequences, listed by entry. Tags and fused reporters are not part of them. Lines headed by an entry give the natural chain unless they say otherwise; changes in a name come on top. Residues count along the entry.
UniProt Q15303, 26-1308: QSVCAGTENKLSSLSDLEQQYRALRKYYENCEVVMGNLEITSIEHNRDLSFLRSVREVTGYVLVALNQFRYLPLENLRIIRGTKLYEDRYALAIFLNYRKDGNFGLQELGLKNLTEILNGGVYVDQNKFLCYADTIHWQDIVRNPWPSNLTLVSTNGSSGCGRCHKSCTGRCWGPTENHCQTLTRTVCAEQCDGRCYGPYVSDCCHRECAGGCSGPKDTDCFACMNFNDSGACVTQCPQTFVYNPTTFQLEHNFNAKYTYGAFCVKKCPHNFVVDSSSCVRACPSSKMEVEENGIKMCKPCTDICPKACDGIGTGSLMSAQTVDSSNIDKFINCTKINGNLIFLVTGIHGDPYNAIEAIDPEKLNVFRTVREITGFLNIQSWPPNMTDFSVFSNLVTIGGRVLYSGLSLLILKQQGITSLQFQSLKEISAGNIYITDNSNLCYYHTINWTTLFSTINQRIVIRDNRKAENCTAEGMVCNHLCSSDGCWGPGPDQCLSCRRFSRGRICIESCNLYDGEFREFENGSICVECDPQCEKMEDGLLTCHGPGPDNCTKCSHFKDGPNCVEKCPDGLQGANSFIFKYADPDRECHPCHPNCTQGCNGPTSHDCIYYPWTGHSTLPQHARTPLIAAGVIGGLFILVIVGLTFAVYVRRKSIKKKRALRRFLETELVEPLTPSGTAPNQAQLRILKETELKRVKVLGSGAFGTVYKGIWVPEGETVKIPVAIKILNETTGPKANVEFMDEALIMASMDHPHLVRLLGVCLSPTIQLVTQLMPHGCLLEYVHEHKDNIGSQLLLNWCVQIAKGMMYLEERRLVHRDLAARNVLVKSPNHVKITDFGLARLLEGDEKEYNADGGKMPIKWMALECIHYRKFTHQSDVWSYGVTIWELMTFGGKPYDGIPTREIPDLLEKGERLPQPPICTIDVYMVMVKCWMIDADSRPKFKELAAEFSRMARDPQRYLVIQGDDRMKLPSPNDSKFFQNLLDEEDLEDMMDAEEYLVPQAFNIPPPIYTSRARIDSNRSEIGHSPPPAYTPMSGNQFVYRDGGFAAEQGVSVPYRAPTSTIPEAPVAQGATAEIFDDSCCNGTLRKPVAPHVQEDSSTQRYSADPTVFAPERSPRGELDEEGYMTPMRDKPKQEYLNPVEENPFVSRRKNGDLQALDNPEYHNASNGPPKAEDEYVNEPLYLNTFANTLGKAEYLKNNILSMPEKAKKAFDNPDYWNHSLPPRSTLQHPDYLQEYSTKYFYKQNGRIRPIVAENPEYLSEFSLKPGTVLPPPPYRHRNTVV
UniProt P51451: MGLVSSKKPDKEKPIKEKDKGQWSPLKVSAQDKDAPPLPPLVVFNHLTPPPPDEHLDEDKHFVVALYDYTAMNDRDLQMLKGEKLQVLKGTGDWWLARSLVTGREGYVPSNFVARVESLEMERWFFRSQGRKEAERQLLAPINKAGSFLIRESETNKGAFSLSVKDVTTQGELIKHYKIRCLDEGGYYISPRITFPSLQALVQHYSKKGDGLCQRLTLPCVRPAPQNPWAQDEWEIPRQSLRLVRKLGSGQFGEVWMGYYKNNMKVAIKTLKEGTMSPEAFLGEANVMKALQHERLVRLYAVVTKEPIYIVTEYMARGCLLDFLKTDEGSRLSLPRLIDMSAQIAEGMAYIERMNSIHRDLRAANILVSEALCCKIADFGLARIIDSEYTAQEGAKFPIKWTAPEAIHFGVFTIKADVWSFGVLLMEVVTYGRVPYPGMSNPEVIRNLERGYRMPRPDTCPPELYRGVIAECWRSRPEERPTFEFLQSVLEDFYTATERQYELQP
UniProt P52333, 822-1111 limits assumed: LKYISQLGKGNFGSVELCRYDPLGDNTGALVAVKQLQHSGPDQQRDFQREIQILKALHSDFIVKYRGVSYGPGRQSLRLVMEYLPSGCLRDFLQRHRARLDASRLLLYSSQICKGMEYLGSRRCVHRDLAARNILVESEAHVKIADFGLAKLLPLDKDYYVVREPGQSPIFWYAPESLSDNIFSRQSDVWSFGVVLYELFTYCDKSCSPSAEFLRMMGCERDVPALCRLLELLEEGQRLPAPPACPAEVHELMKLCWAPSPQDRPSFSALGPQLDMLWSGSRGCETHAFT

Legend:
TXK = biological target: T1, TXK (Homo sapiens, UniProt P42681); experiment: Radiometric kinase assay (Reaction Biology HotSpot); format: biochemical; settings: read-out: Residual Activity @ 200 nM, TXK
T1 construct: purchased Reaction Biology Corporation
T1 sequence (P42681 1-527): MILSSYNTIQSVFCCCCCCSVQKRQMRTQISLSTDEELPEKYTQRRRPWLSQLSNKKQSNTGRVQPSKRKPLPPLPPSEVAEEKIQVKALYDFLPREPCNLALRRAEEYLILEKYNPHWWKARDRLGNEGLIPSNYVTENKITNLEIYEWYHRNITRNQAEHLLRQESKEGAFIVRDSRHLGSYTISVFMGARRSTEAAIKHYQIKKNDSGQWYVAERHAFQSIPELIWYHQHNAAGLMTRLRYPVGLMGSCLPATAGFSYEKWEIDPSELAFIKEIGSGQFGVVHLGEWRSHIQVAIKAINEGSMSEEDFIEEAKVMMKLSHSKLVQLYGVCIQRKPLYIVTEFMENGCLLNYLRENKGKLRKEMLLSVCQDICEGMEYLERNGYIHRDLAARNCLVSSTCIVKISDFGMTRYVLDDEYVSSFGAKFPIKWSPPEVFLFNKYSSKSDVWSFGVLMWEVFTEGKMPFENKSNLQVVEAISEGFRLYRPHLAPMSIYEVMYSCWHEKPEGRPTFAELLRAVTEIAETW
Procedure: (§1) If not mentioned differently, in vitro profiling of compounds was performed at Reaction Biology Corporation using the HotSpot™ assay platform.

HER2 = biological target: T2, HER2 (Homo sapiens, UniProt P04626); experiment: as above; format: biochemical; settings: read-out: Residual Activity @ 200 nM, HER2
T2 construct: purchased Reaction Biology Corporation
Procedure: as §1

EGFR = biological target: T3, EGFR (Homo sapiens, UniProt P00533); experiment: as above; format: biochemical; settings: read-out: Residual Activity @ 200 nM, EGFR
T3 construct: purchased Reaction Biology Corporation
Procedure: as §1

HER4 = biological target: T4, HER4 (Homo sapiens, UniProt Q15303); experiment: as above; format: biochemical; settings: read-out: Residual Activity @ 200 nM, HER4
T4 construct: purchased Reaction Biology Corporation
Procedure: as §1

BLK = biological target: T5, BLK (Homo sapiens, UniProt P51451); experiment: as above; format: biochemical; settings: read-out: Residual Activity @ 200 nM, BLK
T5 construct: purchased Reaction Biology Corporation
Procedure: as §1

TEC = biological target: T6, TEC (Homo sapiens, UniProt P42680); experiment: as above; format: biochemical; settings: read-out: Residual Activity @ 200 nM, TEC
T6 construct: purchased Reaction Biology Corporation
T6 sequence (P42680 1-631): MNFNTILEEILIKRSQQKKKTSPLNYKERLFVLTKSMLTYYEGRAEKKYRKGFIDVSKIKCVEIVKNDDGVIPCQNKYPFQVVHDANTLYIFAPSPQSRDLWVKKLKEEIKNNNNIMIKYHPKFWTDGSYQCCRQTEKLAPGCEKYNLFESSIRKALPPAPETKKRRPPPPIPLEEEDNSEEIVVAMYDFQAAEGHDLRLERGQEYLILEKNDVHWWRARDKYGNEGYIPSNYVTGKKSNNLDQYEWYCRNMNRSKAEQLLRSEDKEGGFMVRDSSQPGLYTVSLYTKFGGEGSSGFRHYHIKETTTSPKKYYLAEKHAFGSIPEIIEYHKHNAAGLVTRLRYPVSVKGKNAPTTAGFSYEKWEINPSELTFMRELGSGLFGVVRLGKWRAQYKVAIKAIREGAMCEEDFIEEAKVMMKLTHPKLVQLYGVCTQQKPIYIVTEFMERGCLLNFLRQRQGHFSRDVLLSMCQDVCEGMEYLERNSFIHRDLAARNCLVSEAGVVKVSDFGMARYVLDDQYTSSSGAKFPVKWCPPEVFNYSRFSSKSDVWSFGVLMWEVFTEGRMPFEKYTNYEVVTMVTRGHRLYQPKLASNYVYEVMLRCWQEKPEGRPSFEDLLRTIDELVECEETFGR
Procedure: as §1

kinase domain of JAK3 = biological target: T7, kinase domain of JAK3 (Homo sapiens, UniProt P52333); experiment: Thermal shift (ΔTm) assay; format: binding; settings: read-out: JAK3 ΔTm
T7 construct: The kinase domains of JAK3 and BMX at 2 μM; made in house
Procedure: The kinase domains of JAK3 and BMX at 2 μM were mixed with the inhibitors at 10 μM, and subsequently SyPRO orange dye (Invitrogen Carlsbad, CA, USA) was added. The thermal shift assay and data evaluation were performed as described previously using a Real-Time PCR Mx3005p machine (Stratagene, La Jolla, CA, USA).

**Q.** What does the source list for `C=CC(=O)Nc1cccc(-c2c[nH]c3ncc(NC(=O)C4CCCC4)cc23)c1` [Compound 12a, N-(3-(3-acrylamidophenyl)-1H-pyrrolo[2,3-b]pyridin-5-yl)cyclopentanecarboxamide]?
**A.** remaining activity at 0.2 µM (TXK): 5.9%; remaining activity at 0.2 µM (HER2): 81.9%; remaining activity at 0.2 µM (EGFR): 51.3%; remaining activity at 0.2 µM (HER4): 15.9%; remaining activity at 0.2 µM (BLK): 14.7%; remaining activity at 0.2 µM (TEC): 25.4%; ΔTm at 10 µM (kinase domain of JAK3): 13.8 ± 0.13 °C
